From patent US20110020470A1, “METHODS AND COMPOSITIONS FOR TREATING CANCER” (SOUND PHARMACEUTICALS INCORPORATED, priority 2005, published 2011)

System: mammalian ovarian cancer cell lines
Assay: MTT cytotoxicity study, statements over all ovarian cancer cell lines tested
Format: cell-based
Protocol: Each of the cell lines listed above was plated at a density of 3,500 cells per well in 96 well plates and incubated at 37° C. for 24 hours. Each of the cell lines was treated with 50 μl of either ebselen, allopurinol, or ebselen plus allopurinol at concentrations ranging from 0 to 100 μM and incubated for one hour. After the one hour incubation, 50 μl of cisplatin and paclitaxel were added to the cell lines at the various concentrations shown in TABLE 2 to achieve an IC50 in the absence of other drugs. The cells were then incubated at 37° C. in 5% CO2 in the presence of the cisplatin and paclitaxel for an additional 67-72 hours. Control wells were included as follows: no drug, ebselen, allopurinol, ebselen and allopurinol, and cisplatin/paclitaxel.
After the 67-72 hour incubation period, 10 μl of MTT (3-(4,5-dimethlythiazol-2-yl)-2,5-diphenyl […] bromide) working solution was added to each well (based on the instructions in the Chemicon MTT Cell Growth Kit Cat #CT01) and the cells were incubated for 4 hours. 100 μl of isopropanol/HCl solution was then added to each well and absorbance at 570 nm was measured. The results of the MTT assay for the different ovarian cancer cell lines tested are shown in FIGS. 9A-16C and are summarized below in TABLE 3.

Oc1ncnc2[nH]ncc12 [allopurinol]
effect of allopurinol on the chemotherapeutic effect of ebselen: did not reduce the chemotherapeutic effect of ebselen
